One block for each compound: values may come before it.
Experiment: Pharmacokinetic study in rats after oral administration of SYD extract and its single and combined TCM extracts (UPLC-MS/MS of plasma)
Conditions: n = 6
[1] = rat plasma, oral LJ + SN + AS extract 5.43 g/kg
[2] = rat plasma, oral LJ + SN + GU extract 4.73 g/kg
[3] = rat plasma, oral LJ + SN extract
[4] = rat plasma, oral SN + AS + GU extract 4.28 g/kg
[5] = rat plasma, oral SN + AS extract
[6] = rat plasma, oral SN + GU extract
[7] = rat plasma, oral SN extract 2.49 g/kg
[8] = rat plasma, oral SYD extract 8.25 g/kg

Tmax (male, Sprague-Dawley, rat, plasma, po, 3.98 g·kg^−1, Tmax, oral SN + AS extract): 1.42 ± 0.38 h
Tmax (male, Sprague-Dawley, rat, plasma, po, 4.5 g·kg^−1 (extract), Tmax, oral LJ + SN extract): 1.67 ± 0.41 h
Compound: C[C@]1(OC(=O)/C=C/c2ccccc2)C[C@@H](O)[C@]2(O)C=CO[C@@H](O[C@@H]3O[C@H](CO)[C@@H](O)[C@H](O)[C@H]3O)[C@@H]21 [Harpagoside, harpagoside]

Tmax (male, Sprague-Dawley, rat, plasma, po, 8.25 g/kg, Tmax, oral SYD extract 8.25 g/kg): 1.42 ± 0.38 h
Compound: COC(=O)C1=CO[C@@H](O[C@@H]2O[C@H](CO)[C@@H](O)[C@H](O)[C@H]2O)[C@@H]2[C@@H](C)[C@@H](O)C[C@H]12 [Loganin, loganin]

Compound: harpagide
AUC(0–t) [1]: 1580 ± 190 ng·h/mL
AUC(0–∞) [1]: 2620 ± 1830 ng·h/mL
Cmax [1]: 600 ± 120 ng/mL
MRT(0–t) [1]: 4.82 ± 0.56 h
MRT(0–∞) [1]: 52.09 ± 101.60 h
Tmax [1]: 1.58 ± 0.20 h
t1/2 [1]: 6.30 ± 0.99 h
AUC(0–t) [2]: 1450 ± 260 ng·h/mL
AUC(0–∞) [2]: 2670 ± 1810 ng·h/mL
Cmax [2]: 620 ± 110 ng/mL
MRT(0–t) [2]: 5.12 ± 0.59 h
MRT(0–∞) [2]: 62.09 ± 10.74 h
Tmax [2]: 1.58 ± 0.20 h
t1/2 [2]: 8.34 ± 1.93 h
AUC(0–t) [3]: 1410 ± 170 ng·h/mL
AUC(0–∞) [3]: 2500 ± 1860 ng·h/mL
Cmax [3]: 590 ± 110 ng/mL
MRT(0–t) [3]: 5.18 ± 0.19 h
MRT(0–∞) [3]: 55.30 ± 10.97 h
Tmax [3]: 1.17 ± 0.26 h
t1/2 [3]: 7.14 ± 0.84 h
AUC(0–t) [4]: 1720 ± 220 ng·h/mL
AUC(0–∞) [4]: 2760 ± 1820 ng·h/mL
Cmax [4]: 750 ± 150 ng/mL
MRT(0–t) [4]: 4.58 ± 0.49 h
MRT(0–∞) [4]: 50.90 ± 99.45 h
Tmax [4]: 1.67 ± 0.26 h
t1/2 [4]: 7.12 ± 2.34 h
AUC(0–t) [5]: 1610 ± 330 ng·h/mL
AUC(0–∞) [5]: 2760 ± 1690 ng·h/mL
Cmax [5]: 550 ± 150 ng/mL
MRT(0–t) [5]: 5.17 ± 0.62 h
MRT(0–∞) [5]: 58.81 ± 10.17 h
Tmax [5]: 1.67 ± 0.41 h
t1/2 [5]: 7.93 ± 2.55 h
AUC(0–t) [6]: 1160 ± 150 ng·h/mL
AUC(0–∞) [6]: 2390 ± 1850 ng·h/mL
Cmax [6]: 350 ± 120 ng/mL
MRT(0–t) [6]: 5.98 ± 0.42 h
MRT(0–∞) [6]: 65.43 ± 10.77 h
Tmax [6]: 1.42 ± 0.38 h
t1/2 [6]: 8.79 ± 2.77 h
AUC(0–t) [7]: 2770 ± 340 ng·h/mL
AUC(0–∞) [7]: 2940 ± 370 ng·h/mL
Cmax [7]: 1120 ± 120 ng/mL
MRT(0–t) [7]: 4.26 ± 0.46 h
MRT(0–∞) [7]: 6.39 ± 2.61 h
Tmax [7]: 1.00 ± 0.00 h
t1/2 [7]: 6.70 ± 2.94 h
AUC(0–t) [8]: 1570 ± 250 ng·h/mL
AUC(0–∞) [8]: 2610 ± 1730 ng·h/mL
Cmax [8]: 670 ± 160 ng/mL
MRT(0–t) [8]: 4.92 ± 0.56 h
Tmax [8]: 2.00 ± 0.00 h
t1/2 [8]: 7.72 ± 1.78 h

Source: paper PMC6150365, “Simultaneous Determination of Seven Components in Rat Plasma by the UPLC-MS/MS Method and Application of Pharmacokinetic Studies to SimiaoYong’an Decoction” (Molecules : A Journal of Synthetic Chemistry and Natural …, 2017)
